Biological target: F-actin polymerised from purified bovine muscle actin (bovine, UniProt P68138 1-377)

Kd: 0.53 µM
B1: Y4/31E/K255E ACTN4, full length, purified from E. coli (natural protein)
chain: MVDEHAANQSYQYGPSSAGNGAGGGGSMGDEMAQEDDWDRDLLLDPAWEKQQRKTFTAWCNSHLRKAGTQIENIDEDFRDGLKLMLLLEVISGERLPKPERGKMRVHKINNVNKALDFIASKGVKLVSIGAEEIVDGNAKMTLGMIWTIILRFAIQDISVEETSAKEGLLLWCQRKTAPYKNVNVQNFHISWKDGLAFNALIHRHRPELIEYDKLRKDDPVTNLNNAFEVAEKYLDIPKMLDAEDIVNTARPDEEAIMTYVSSFYHAFSGAQKAETAANRICKVLAVNQENEHLMEDYEKLASDLLEWIRRTIPWLEDRVPQKTIQEMQQKLEDFRDYRRVHKPPKVQEKCQLEINFNTLQTKLRLSNRPAFMPSEGKMVSDINNGWQHLEQAEKGYEEWLLNEIRRLERLDHLAEKFRQKASIHEAWTDGKEAMLKHRDYETATLSDIKALIRKHEAFESDLAAHQDRVEQIAAIAQELNELDYYDSHNVNTRCQKICDQWDALGSLTHSRREALEKTEKQLEAIDQLHLEYAKRAAPFNNWMESAMEDLQDMFIVHTIEEIEGLISAHDQFKSTLPDADREREAILAIHKEAQRIAESNHIKLSGSNPYTTVTPQIINSKWEKVQQLVPKRDHALLEEQSKQQSNEHLRRQFASQANVVGPWIQTKMEEIGRISIEMNGTLEDQLSHLKQYERSIVDYKPNLDLLEQQHQLIQEALIFDNKHTNYTMEHIRVGWEQLLTTIARTINEVENQILTRDAKGISQEQMQEFRASFNHFDKDHGGALGPEEFKACLISLGYDVENDRQGEAEFNRIMSLVDPNHSGLVTFQAFIDFMSRETTDTDTADQVIASFKVLAGDKNFITAEELRRELPPDQAEYCIARMAPYQGPDAVPGALDYKSFSTALYGESDL

— article PMC6820738 (2019)
